Consider one compound from patent publication US10086010B2 (STC.UNM, priority 2014, dated 2018).

In this assay the test system is HT-29 cells. Description: WST-1 cell growth/viability assay, HT-29. The class given is cell-based, human. The settings on record: HT-29, 72 hours. The procedure: Indicated concentrations of drugs were added to wells one day after seeding. […] Cell proliferation was quantitated by measuring 450 nm absorbance and 600 nm as a background. All assays were performed in triplicate. […] The minimal combination index […] for each cell line was obtained from the isobologram parameters.

On to `O=c1[nH]c(=O)n([C@H]2C[C@H](O)[C@@H](CO)O2)cc1F` [5-FUdR, 5-fluoro-2′-deoxyuridine], for which the “synergy with hmUdR” value is given as “acted synergistically”.
